Data: PMC5548887 (Nature Communications, 2017)

Target: T1, Ubiquitin (the Ub chain of the UbcH7-Ub conjugate in the crystal structure) (UniProt P0CG48, in part, C-terminal Gly76 isopeptide-linked to K86 of UbcH7)
T1 construct: ubiquitin (Ub), C-terminal glycine Gly76; The same chain as the second chain of m2, written alone for the pairs that touch in the structure; source: in the structure as part of the UbcH7-Ub conjugate
Test: crystal structure; HHARI/UbcH7-Ub complex, 3.5 Å, space group P6(5)22, one complex per asymmetric unit; crystals at 18 °C in 100 mM sodium cacodylate pH 6.17, 350 mM sodium acetate, 10% glycerol
Conditions: both partners purified

binding result: binds
B1: HHARI full-length (residues 1-557) (enzyme, UniProt Q9Y4X5 1-557, looked up)
chain: MDSDEGYNYEFDEDEECSEEDSGAEEEEDEDDDEPDDDTLDLGEVELVEPGLGVGGERDGLLCGETGGGGGSALGPGGGGGGGGGGGGGGPGHEQEEDYRYEVLTAEQILQHMVECIREVNEVIQNPATITRILLSHFNWDKEKLMERYFDGNLEKLFAECHVINPSKKSRTRQMNTRSSAQDMPCQICYLNYPNSYFTGLECGHKFCMQCWSEYLTTKIMEEGMGQTISCPAHGCDILVDDNTVMRLITDSKVKLKYQHLITNSFVECNRLLKWCPAPDCHHVVKVQYPDAKPVRCKCGRQFCFNCGENWHDPVKCKWLKKWIKKCDDDSETSNWIAANTKECPKCHVTIEKDGGCNHMVCRNQNCKAEFCWVCLGPWEPHGSAWYNCNRYNEDDAKAARDAQERSRAALQRYLFYCNRYMNHMQSLRFEHKLYAQVKQKMEEMQQHNMSWIEVQFLKKAVDVLCQCRATLMYTYVFAFYLKKNNQSIIFENNQADLENATEVLSGYLERDISQDSLQDIKQKVQDKYRYCESRRRVLLQHVHEGYEKDLWEYIED
notes: HHARI (ARIH1), residues 1-557 (full-length); 6xHis-SMT3 tag removed with ULP1; ZnCl2 added before induction; also called ARIH1; HHARI^E2-Ub; source: E. coli BL21 (DE3) Codon Plus, purified (Ni-NTA, Superdex 200, MonoQ); not shown: His6, N-terminal, cleaved; SMT3, N-terminal, cleaved
